# According to ChEMBL document CHEMBL3596167, “Branched -d-mannopyranosides: a new class of potent FimH antagonists” (Medchemcomm, 2014):
# Amino acid sequences for entries named in this document (tags omitted).
# UniProt P08191, whole entry: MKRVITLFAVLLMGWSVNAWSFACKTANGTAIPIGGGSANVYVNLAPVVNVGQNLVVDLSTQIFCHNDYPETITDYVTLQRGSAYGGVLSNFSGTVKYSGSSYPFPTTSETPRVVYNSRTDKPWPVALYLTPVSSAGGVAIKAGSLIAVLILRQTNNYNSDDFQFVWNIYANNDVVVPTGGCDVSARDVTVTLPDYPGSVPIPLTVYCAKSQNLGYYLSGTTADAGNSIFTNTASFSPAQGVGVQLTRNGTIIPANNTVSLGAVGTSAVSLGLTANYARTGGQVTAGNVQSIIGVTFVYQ
# Tests used:
# [1] = biological target: Type 1 fimbrin D-mannose specific adhesin (Escherichia coli K-12) (UniProt P08191); assay: Inhibition of Escherichia coli FimH relative to methyl alpha-D-mannopyranoside
# [2] = biological target: Type 1 fimbrin D-mannose specific adhesin (Escherichia coli K-12) (UniProt P08191); assay: Inhibition of Escherichia coli FimH relative to heptyl alpha-D-mannopyranoside
smiles,measurement,setting,value
CCCCCCCO[C@H]1O[C@H](CO)[C@@H](O)[C@H](O)[C@@H]1O,Ratio,[1],440
same,Ratio,[2],1
